Apparent affinities of Ab-14 variants for a coronavirus HR2 peptide

Target: peptide PDVDLGDISGINAS, taken from heptad repeat 2 (HR2) of SARS-CoV-2 spike.

Ab-14 is the parent antibody, in scFv form: VH, then three GGGGS repeats, then VL. The heavy chain is unchanged in all variants.
VH: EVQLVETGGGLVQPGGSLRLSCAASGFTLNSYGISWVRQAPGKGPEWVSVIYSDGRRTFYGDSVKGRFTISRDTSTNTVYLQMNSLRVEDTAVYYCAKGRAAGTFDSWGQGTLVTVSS
VL: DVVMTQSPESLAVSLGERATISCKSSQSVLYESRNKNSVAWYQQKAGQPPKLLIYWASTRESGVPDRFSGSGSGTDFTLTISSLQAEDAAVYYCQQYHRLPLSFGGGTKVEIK

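Phage display of a naive human antibody library on the peptide gave the parent. These sequences belong to a second round, designed from the earlier measurements on random variants of the parent. Their group label is 14L_En_Gen (En: ensemble of fine-tuned language models; Gen: genetic algorithm). The assay is AlphaSeq: two haploid yeast populations carry antibody and antigen on their surface. Binding brings cells together so that they mate, and sequencing counts the barcode pairs among the diploids. Scores were corrected for input abundance and mapped to Kd with protein pairs of known affinity run in the same pool. The assay was run in six technical replicates.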

Variants are written as CDR1, CDR2 and CDR3 of the light chain (limits as in the source). Parent: KSSQSVLYESRNKNSVA, WASTRES, QQYHRLPLS. The read-out is the apparent dissociation constant on a log10 scale (nM): the lower, the stronger. Replicates are averaged; those with no signal do not enter the mean. "ND" means that the variant was in the library but no mating with the target was seen in that replicate; the authors take this as a sign of poor binding, and no number exists. In the paper, a design with two or fewer of six values counts as a poor binder. The range of this assay differs from that of the first round, and the authors advise against merging the two. Three control strains display no target. For all light chain designs, 4% of the pairings with them gave a signal, with a median of 2.64 and one signal in twenty below 1.59, so weak values seen in few replicates may be background. For each scFv, signals with the empty controls are counted beside the result, with their mean in brackets.

CDR-L1,CDR-L2,CDR-L3,"replicates, log10 nM",mean log10 Kd (nM),control signals
MLSEVLHMLGVQKNSIA,DLVLRAN,QQYARLPLM,ND / 1.72 / 2.32 / ND / ND / 2.29,2.11,0 of 18
TITAFMDNLSQNRNNVA,DTSTLGS,QSYDRLPLS,2.13 / 3.14 / 2.09 / 1.88 / 2.75 / 2.50,2.41,1 of 18 (2.91)
MVNGIMDHLSKQTNNVA,ETTTRNE,QQYDRLPLS,0.92 / 1.27 / 0.78 / 0.28 / 0.38 / 1.23,0.81,0 of 18
MISQLMNMGSFRINSVA,QAQTRNE,QQYDRLPLT,ND / ND / ND / ND / ND / ND,ND,0 of 18
TISQMTSWMSNKKANVA,EVSTREK,QQYDRLPLS,0.76 / 0.19 / -0.04 / 0.47 / 0.62 / 0.77,0.46,0 of 18
MISNVMNTLTRAGNNVA,DLAEREK,QQYFRLPLS,0.00 / -0.59 / 0.52 / -0.55 / -0.09 / 0.54,-0.03,0 of 18
TISQMMQLFSQTINNVA,EVSTREE,QQYDRLPLM,0.81 / 0.86 / 0.59 / 0.89 / 1.93 / 0.80,0.98,3 of 18 (1.76)
TLSQMSGVEAVKHNNVA,ENSTREK,QQYDRLPLA,ND / 0.86 / 1.54 / 1.88 / 0.89 / 1.88,1.41,0 of 18
KVSEFMRGLMMRQDSIA,DNQTRNN,QQYDRLPLS,0.64 / 0.51 / 0.88 / 0.79 / 1.21 / 1.43,0.91,0 of 18
NISHFMDVTAKNINNVA,EMTMREA,QQYHHLPLS,0.82 / 0.62 / 0.76 / 0.82 / 0.57 / 0.75,0.72,0 of 18
KLSMVTGHLSMAKNNVA,EMETREK,QQYERLPLS,0.75 / 1.13 / 0.35 / 0.54 / 1.14 / 0.37,0.71,0 of 18
HITYGMMLYGRHSKSIA,QAEERAK,QQYDRLPLA,1.58 / 1.20 / 1.25 / 0.96 / 2.05 / 0.90,1.32,0 of 18
MISQLYNMGTFAINSVA,QASVRYE,QQYDRLPLI,0.15 / 0.43 / -0.09 / 0.17 / -0.16 / 0.44,0.16,0 of 18
IVSQLMLWGHLAKNSIA,EAQTRLN,QQYDRLPLI,ND / ND / ND / ND / ND / ND,ND,0 of 18
HIGGVLEGNNVKGRSVA,HMNTRED,QQYDRLPLI,1.00 / 0.60 / 1.01 / 0.42 / 0.39 / 0.80,0.70,0 of 18
QISQMMNLSMHQVNNVA,QMTTREK,QQYDRLPLS,1.49 / 1.15 / 0.90 / 0.98 / 0.88 / 1.05,1.07,0 of 18
MVTQLMLWGWHAKNSIA,EAQTRVN,QQYDRLPLI,3.47 / ND / 1.95 / 2.23 / 4.49 / ND,3.04,1 of 18 (3.86)
TLYGLSNSMQKEKNNVA,EMSTREN,QQYDRLPLI,ND / ND / ND / ND / ND / ND,ND,0 of 18
IVSQLMLWGMKARNSIA,EAVTRLN,QQYDRLPLI,ND / ND / ND / ND / ND / ND,ND,0 of 18
MISQLMNMGTFAINSVA,QAELRND,QQYDRLPLT,ND / 2.81 / 1.48 / 1.22 / 3.56 / 1.63,2.14,0 of 18
HITYGMQVMGRHSKSIA,QAETREK,QQYDRLPLA,1.24 / 1.33 / 0.74 / 0.77 / 1.19 / 1.43,1.12,0 of 18
QIYQAMHTLSQMQDNVA,DVNERGS,QQYFRLPLS,0.71 / 0.33 / 0.67 / 0.15 / -0.15 / 0.81,0.42,0 of 18
HMSFLTLGGMRQKNSVA,QMTTREN,QQYDHLPLS,1.66 / 0.87 / 1.89 / 2.22 / 1.20 / 1.76,1.60,0 of 18
TIAGVMNTSSHSKNNVA,EVSTRLD,QQYFRLPLE,0.61 / 0.43 / 0.62 / 0.45 / 0.48 / 0.92,0.58,1 of 18 (2.05)
KVSEFMRGLMQKTDSIA,DNVTRNN,QQYDRLPLS,0.86 / 1.03 / 0.03 / 1.01 / 0.36 / 1.14,0.74,1 of 18 (2.28)
IVSQLMLWGWHAKNSIA,EAQTRIN,QQYDRLPLM,ND / ND / ND / ND / ND / ND,ND,0 of 18
KISQMTRVGSTHGNSIA,EEVTRAK,QQYHRLPLA,ND / ND / ND / ND / ND / ND,ND,0 of 18
TLYGLSVSMSKNTNSVA,EMTTRED,QQYDRLPLI,3.42 / 0.92 / 1.55 / 2.73 / 0.82 / 1.49,1.82,1 of 18 (4.07)
MLYGLTVSMSKNKNNVA,EMTTREK,QQYDRLPLI,1.13 / 0.62 / 0.32 / 2.65 / 0.07 / 1.14,0.99,0 of 18
KLGMTAEMELKNRNSVA,ELVTREN,QQYNRLPLS,0.87 / 0.36 / 0.24 / 0.53 / 0.18 / 0.66,0.47,1 of 18 (2.15)
MISQLYNMGSFAINSVA,QASERNL,QQYDRLPLI,1.69 / 1.98 / 1.88 / 2.64 / 1.94 / 1.66,1.97,0 of 18
RLSALSGIQSVERNSVA,QNSTREE,QQYDHLPLS,ND / 2.86 / ND / 3.38 / 3.71 / 3.33,3.32,2 of 18 (2.93)
TVTQMAMTGMMSKRSVA,NAETREN,QQYHRLPLI,0.40 / 0.35 / 0.92 / 0.33 / 0.51 / 0.70,0.54,0 of 18
IVSQLMIWGMHAKNSIA,EAETRIN,QQYERLPLF,2.21 / 3.23 / ND / ND / 3.88 / 2.51,2.96,0 of 18
TLYGLSMSMSKNKNNVA,EMSTREK,QQYDRLPLQ,0.54 / 0.35 / -0.03 / 0.09 / -0.05 / 0.42,0.22,0 of 18
IVSQLMLWGHLAKNSIA,EAQTRVN,QQYDRLPLF,0.77 / 1.11 / 0.84 / 0.37 / 1.27 / 1.05,0.90,0 of 18
MISQVMNTLTRIGNNVA,DLAEREV,QQYFRLPLS,1.48 / 1.81 / ND / ND / ND / 1.61,1.63,0 of 18
KIYQGINTHMGAHSSIA,QEETRLQ,QQYAHLPLS,1.61 / 1.99 / 1.44 / 1.34 / 1.10 / 1.56,1.51,2 of 18 (2.76)
IVSQLMIWGMHAKNSIA,EAETRIN,QQYDRLPLF,1.68 / 2.45 / ND / 2.03 / ND / 2.28,2.11,0 of 18
MISQLYNMGTFAINSVA,QAQTRVE,QQYDRLPLI,2.68 / 1.92 / 1.71 / 1.45 / ND / ND,1.94,1 of 18 (2.90)

Picked from the list: the 5 lowest averages where every replicate gave a value.

CDR-L1,CDR-L2,CDR-L3,"replicates, log10 nM",mean log10 Kd (nM),control signals
MISNVMNTLTRAGNNVA,DLAEREK,QQYFRLPLS,0.00 / -0.59 / 0.52 / -0.55 / -0.09 / 0.54,-0.03,0 of 18
MISQLYNMGTFAINSVA,QASVRYE,QQYDRLPLI,0.15 / 0.43 / -0.09 / 0.17 / -0.16 / 0.44,0.16,0 of 18
TLYGLSMSMSKNKNNVA,EMSTREK,QQYDRLPLQ,0.54 / 0.35 / -0.03 / 0.09 / -0.05 / 0.42,0.22,0 of 18
QIYQAMHTLSQMQDNVA,DVNERGS,QQYFRLPLS,0.71 / 0.33 / 0.67 / 0.15 / -0.15 / 0.81,0.42,0 of 18
TISQMTSWMSNKKANVA,EVSTREK,QQYDRLPLS,0.76 / 0.19 / -0.04 / 0.47 / 0.62 / 0.77,0.46,0 of 18

From the AlphaSeq antibody data of Li et al. 2023 (doi:10.1038/s41467-023-39022-2), copy in the FLAb collection.